Measured values from patent publication US9393221B2, “Methods and compounds for reducing intracellular lipid storage” (THE GENERAL HOSPITAL CORPORATION, priority 2011, dated 2016).

Tested on: ATGL-KO iPSCs
Assay: High throughput iPSC chemical screening, Oil Red O (ORO) lipid accumulation; also: test concentration or dose not given here
Conditions: normalized ORO level vs DMSO-treated cells; compound present during 7 days differentiation, 96-well; negative = decrease in lipid accumulation

Compound `Nc1ncnc2c1ncn2[C@@H]1O[C@H](COP(=O)(O)O)[C@@H](O)[C@H]1O.O` [Adenosine 5′-monophosphate monohydrate] has a Z-score of −1.2202.
